13 compounds from ChEMBL document CHEMBL3822383, “Coumarin sulfonamides derivatives as potent and selective COX-2 inhibitors with efficacy in suppressing cancer proliferation and metastasis” (Bioorg Med Chem Lett, 2016) can be followed below.

The species named for the test is Homo sapiens. Kind of test: Selectivity ratio of IC50 for human COX1 to IC50 for human COX2.

For the compound `NS(=O)(=O)c1ccc(-n2nc(C(=O)N/N=C/c3c(Cl)c4ccccc4oc3=O)cc2-c2cccc(Cl)c2)cc1`, the Ratio IC50 is over 185.
The value for `Cc1cccc(-c2cc(C(=O)N/N=C/c3c(Cl)c4ccccc4oc3=O)nn2-c2ccc(S(N)(=O)=O)cc2)c1` was 10; that for `COc1cc(-c2cc(C(=O)N/N=C/c3c(Cl)c4ccccc4oc3=O)nn2-c2ccc(S(N)(=O)=O)cc2)cc(OC)c1OC` was 2.7; that for `COc1ccc(-c2cc(C(=O)N/N=C/c3c(Cl)c4ccccc4oc3=O)nn2-c2ccc(S(N)(=O)=O)cc2)cc1` was 8.1.
The value for `Cc1ccc(-c2cc(C(=O)N/N=C/c3c(Cl)c4ccccc4oc3=O)nn2-c2ccc(S(N)(=O)=O)cc2)cc1` was 12.9.
On to `NS(=O)(=O)c1ccc(-n2nc(C(=O)N/N=C/c3c(Cl)c4ccccc4oc3=O)cc2-c2ccccc2)cc1`, for which the Ratio IC50 is over 22.
As to `COc1cccc(-c2cc(C(=O)N/N=C/c3c(Cl)c4ccccc4oc3=O)nn2-c2ccc(S(N)(=O)=O)cc2)c1`, the Ratio IC50 is over 16.
The value for `NS(=O)(=O)c1ccc(-n2nc(C(=O)N/N=C/c3c(Cl)c4ccccc4oc3=O)cc2-c2ccc(Cl)c(Cl)c2)cc1` was 323.
Turning to `NS(=O)(=O)c1ccc(-n2nc(C(=O)N/N=C/c3c(Cl)c4ccccc4oc3=O)cc2-c2ccccc2Cl)cc1`, the Ratio IC50 came to 81.3.
On to `NS(=O)(=O)c1ccc(-n2nc(C(=O)N/N=C/c3c(Cl)c4ccccc4oc3=O)cc2-c2ccccc2F)cc1`, for which the Ratio IC50 is over 212.
Consider `NS(=O)(=O)c1ccc(-n2nc(C(=O)N/N=C/c3c(Cl)c4ccccc4oc3=O)cc2-c2ccc(F)cc2)cc1`, for which the Ratio IC50 turned out to be 314.
As for `COc1ccc(-c2cc(C(=O)N/N=C/c3c(Cl)c4ccccc4oc3=O)nn2-c2ccc(S(N)(=O)=O)cc2)cc1OC`, the Ratio IC50 worked out at 6.6.
As for `Cc1ccc(-c2cc(C(=O)N/N=C/c3c(Cl)c4ccccc4oc3=O)nn2-c2ccc(S(N)(=O)=O)cc2)c(C)c1`, the Ratio IC50 is 5.5.
